Earlier results, collected in US20150038545A1, “HYDROXYPHENYL PYRROLE COMPOUNDS CONTAINING AN HYDROXAMIC ACID AS HDAC INHIBITORS AND MEDICINAL APPLICATIONS THEREOF” (UNIVERSIDAD DEL PAÍS VASCO, priority 2011, published 2015).

Molecular target: T1, HDAC6 (Homo sapiens, UniProt Q9UBN7)
T1 sequence (Q9UBN7 1-1215): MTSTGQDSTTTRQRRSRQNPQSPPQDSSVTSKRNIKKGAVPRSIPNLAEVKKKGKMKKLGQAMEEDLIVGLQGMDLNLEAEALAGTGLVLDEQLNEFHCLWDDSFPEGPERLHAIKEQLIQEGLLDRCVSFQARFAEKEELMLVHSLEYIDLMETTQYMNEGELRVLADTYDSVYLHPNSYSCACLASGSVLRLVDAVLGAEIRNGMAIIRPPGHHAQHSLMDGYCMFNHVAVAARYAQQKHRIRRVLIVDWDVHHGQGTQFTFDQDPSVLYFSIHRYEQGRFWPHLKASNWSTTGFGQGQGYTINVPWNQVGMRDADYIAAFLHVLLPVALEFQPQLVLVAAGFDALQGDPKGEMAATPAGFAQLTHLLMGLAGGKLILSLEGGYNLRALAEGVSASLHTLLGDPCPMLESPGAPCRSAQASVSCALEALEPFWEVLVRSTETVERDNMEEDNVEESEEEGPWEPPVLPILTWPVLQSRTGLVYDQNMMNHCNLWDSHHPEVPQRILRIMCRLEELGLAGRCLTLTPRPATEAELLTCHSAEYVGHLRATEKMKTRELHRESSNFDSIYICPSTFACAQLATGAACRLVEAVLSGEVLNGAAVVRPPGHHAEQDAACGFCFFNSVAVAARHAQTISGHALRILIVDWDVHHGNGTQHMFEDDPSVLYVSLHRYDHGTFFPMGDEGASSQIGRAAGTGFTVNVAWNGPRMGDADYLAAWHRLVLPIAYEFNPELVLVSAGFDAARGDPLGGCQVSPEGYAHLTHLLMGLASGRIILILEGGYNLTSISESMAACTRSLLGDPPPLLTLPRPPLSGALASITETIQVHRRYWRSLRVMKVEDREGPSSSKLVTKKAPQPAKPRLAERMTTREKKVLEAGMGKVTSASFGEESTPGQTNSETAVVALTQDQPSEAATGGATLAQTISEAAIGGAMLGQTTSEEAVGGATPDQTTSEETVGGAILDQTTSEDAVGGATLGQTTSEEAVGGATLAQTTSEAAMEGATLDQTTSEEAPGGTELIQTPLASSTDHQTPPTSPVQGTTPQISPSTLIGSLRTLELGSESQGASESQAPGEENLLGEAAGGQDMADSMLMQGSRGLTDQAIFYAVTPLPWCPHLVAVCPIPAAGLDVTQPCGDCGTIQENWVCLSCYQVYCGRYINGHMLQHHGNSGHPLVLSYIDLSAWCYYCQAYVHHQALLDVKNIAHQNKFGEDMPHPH
Conditions: cited from earlier work

With `CN1CCc2c(c3ccccc3n2Cc2ccc(C(=O)NO)cc2)C1` [Tubastatin] as the compound, how does the “selectivity over HDAC-1” value (HDAC6 vs HDAC-1) read?
The value was 1000 fold.

What about the “selectivity over HDAC-8” value (HDAC6 vs HDAC-8) of the same compound?
Its value is 57 fold.
